{"source": "patent EP2669276A1", "about": "(Université de Strasbourg, priority 2012, dated 2013)", "origin": "cited, not measured here", "system": "hyperalgesia induced by administration of opiate analgesics", "settings": "rat; single administration 0.5 mg/kg, i.p.; WO02/24192; cited from earlier work", "data": [{"substance": "N^α-adamantan-1-yl-L-Arg-L-Phe-NH2 acetate", "values": [{"measurement": "hyperalgesia induced by administration of fentanyl", "result": "blocks"}]}]}
